Test system: tubulin
Assay: Cell-free tubulin polymerization assay
Assay type: biochemical
Conditions: 5 μM, 60m at 340 nm

SMILES: COc1cc2c(c(OC)c1OC)-c1ccc(OC)c(=O)cc1[C@@H](NC(C)=O)CC2 [colchicine]
- effect on tubulin polymerization: prevents microtubule polymerization
